## Antibody variant affinities, Ab-95 light chain, assay 2

Antigen: PDVDLGDISGINAS, a 14-residue peptide of the SARS-CoV-2 spike HR2 region.

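The starting antibody came from a phage panning campaign against this peptide. In library AAYL52, one, two or three CDR residues were substituted; doubles and triples were drawn at random. In AlphaSeq, yeast of one mating type display the scFv and yeast of the other type display the target. Binding brings cells together so that they mate, and sequencing counts the barcode pairs among the diploids. Scores were corrected for input abundance and mapped to Kd with protein pairs of known affinity run in the same pool. Each pool was mated in three replicate cultures.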

Parent: Ab-95, a human scFv built as VH, the linker GGGGSGGGGSGGGGS, VL. Only the CDRs of the light chain vary.
VH: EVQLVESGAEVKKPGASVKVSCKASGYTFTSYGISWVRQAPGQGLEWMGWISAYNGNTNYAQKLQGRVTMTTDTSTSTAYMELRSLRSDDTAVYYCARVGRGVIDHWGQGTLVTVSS
VL: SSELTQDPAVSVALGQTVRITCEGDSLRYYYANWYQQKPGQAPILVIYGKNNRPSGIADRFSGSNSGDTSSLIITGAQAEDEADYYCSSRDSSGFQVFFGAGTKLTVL

Substitutions are numbered in sequence along the VL above, starting at 1 (not Kabat).
This list gathers variants with a substitution at R53 (VL, numbered from residue 1).
The read-out is the apparent dissociation constant on a log10 scale (nM): the lower, the stronger.
An entry "nd" has no value in the source: the pair was not observed among the diploids in that replicate. This suggests poor binding but is not conclusive.
Background: pairings of library AAYL52 with three empty control strains gave a value in 28% of cases (median 3.91, 5th percentile 2.90). Values in that range, when seen in few replicates, are hard to tell from nonspecific mating. The control count says in how many pairings with the empty strains this scFv gave a signal.
In this assay the parent's reference entry averaged 2.31; its copy inside this library read 2.25.

- R53P R90G S92C: 4.75, nd, 2.65 (controls 3 of 9)
- Y29S R53Q S93V: 4.72, nd, nd (controls 3 of 9)
- R53M R90L D91M: 4.10, 3.60, nd (controls 2 of 9)
- R53F P54W F95D: 2.91, nd, nd (controls 3 of 9)
- N52H R53E F98V: 4.70, nd, nd (controls 5 of 9)
- A32S R53W F98D: 4.78, 4.01, 3.46 (controls 6 of 9)
- N52E R53Q D91V: 5.69, nd, nd (controls 3 of 9)
- K50P R53T S88P: 4.80, 3.56, 3.97 (controls 1 of 9)
- R53D S89V S92V: nd, nd, nd (controls 2 of 9)
- R53E P54W S92T: nd, nd, nd (controls 0 of 9)
- G49M N52E R53W: 2.95, 4.52, nd (controls 4 of 9)
- A32P N33G R53E: 4.24, nd, nd (controls 1 of 9)
- Y30K K50L R53N: nd, 3.73, nd (controls 2 of 9)
- A32N R53W D91M: 4.31, 3.61, 3.57 (controls 3 of 9)
- G49Y R53H S55M: nd, nd, nd (controls 1 of 9)
- K50M R53V F95C: 3.40, 3.66, nd (controls 1 of 9)
- R53W: 4.55, 4.43, nd (controls 6 of 9)
- N33H R53Y: 4.85, 4.63, nd (controls 4 of 9)
- Y29V N51A R53V: 3.86, nd, 4.52 (controls 4 of 9)
- E23L R53S S88H: 3.30, 3.83, 4.04 (controls 3 of 9)
- S26K R53H S55V: 4.19, 5.80, 4.54 (controls 5 of 9)
- R53G V97M F98A: nd, nd, nd (controls 3 of 9)
- R53C F98V: nd, 3.81, 3.86 (controls 2 of 9)
- K50H R53T S88I: nd, nd, nd (controls 1 of 9)
- R53T S92T F95I: nd, nd, 2.37 (controls 0 of 9)
- L27C R53V: nd, nd, nd (controls 0 of 9)
- R28H R53I S88H: 1.85, 1.90, 1.24 (controls 2 of 9)
- Y29W R53G D91I: nd, nd, nd (controls 2 of 9)
- R53I S93L Q96H: 4.72, nd, 3.09 (controls 4 of 9)
- E23I Y31M R53W: 3.38, 3.58, 3.41 (controls 2 of 9)
- S26P R53Y S93Q: 4.93, 4.83, nd (controls 5 of 9)

Values reported by Engelhart et al. 2022, doi:10.1038/s41597-022-01779-4 (FLAb copy).